Where two headings read alike, the source gives them in different places.
Tests used:
[1] = tested on: immature embryos of wheat (Triticum aestivum L) cv Bobwhite; assay: Agrobacterium-mediated wheat transformation, glyphosate selection (transformation efficiency); type: cell-based; conditions: 20 μM CuSO4 in MMS0C; Table 13
Description: (§1) Immature embryos of wheat (Triticum aestivum L) cv Bobwhite were isolated from the immature caryopsis (wheat spikelets) 12-15 days after pollination, and cultured on CM4C (Table 2) for 1-8 days, most typically for 4-6. The embryos without embryogenic callus were selected for Agrobacterium inoculation.
A disarmed Agrobacterium strain C58 (ABI) harboring a binary vector was used for all the experiments. For the control experiments, cultures of Agrobacterium were initiated from glycerol stocks or from a freshly streaked plate and grown overnight at 26° C.-28° C. with shaking (approximately 150 rpm) to mid-log phase (about OD660=1-1.5) in liquid LB medium, pH 7.0 (Miller, 1972) containing 50 mg/L kanamycin, 50 mg/L streptomycin and spectinomycin, and 25 mg/L chloramphenicol with 200 μM acetosyringone (AS). The Agrobacterium cells were resuspended in the inoculation medium and the density was adjusted to an OD660 of 1. The immature embryos cultured in CM4C medium were transferred into sterile petri plates (16×20 mm) or wells of a 6-well cell culture plate (Costar Corporation, Cambridge, Mass.) containing 10 mL of inoculation medium per petri plate or 5 mL per cell culture cluster plate. An equal amount of the Agrobacterium cell suspension was added such that the final concentration of Agrobacterium cells was an OD660 of 0.5. […]

wheat callus cultures = conditions: no glyphosate
Description: Five treatments were done: 1) control (0.1 μM Cu as in MS medium) without additional copper; 2) 2 μM copper, applied at delay and selection for 2 weeks total; 3) 2 μM Cu at 1st regeneration for 2 weeks; 4) 2 μM Cu at 2nd regeneration for 2 or more weeks; and 5) 2 μM Cu constantly present at all of these stages.

[2] = tested on: immature embryos of wheat; assay: Agrobacterium-mediated wheat transformation, nptII (G418/kanamycin) selection (transformation efficiency); type: cell-based, Triticum aestivum L
Description: as §1
A disarmed Agrobacterium strain C58 (ABI) harboring a binary vector was used for all the experiments. […] The Agrobacterium cells were resuspended in the inoculation medium and the density was adjusted to an OD660 of 1. […] An equal amount of the Agrobacterium cell suspension was added such that the final concentration of Agrobacterium cells was an OD660 of 0.5. In most experiments, pluronic F68 was added to the inoculation mixture at a final concentration of 0.01%. The ratio between the Agrobacterium and immature embryos (IEs) was about 10 mL: 20-200 IEs. The conditions for inoculation were temperatures from about 23° C.-26° C. with a duration from about 5-60 minutes.
After the inoculation period, the remaining Agrobacterium cells were removed from the explants by using the in-house vacuum equipment. A piece of sterile Whatman No. 1 filter paper (to fit the size of the petri plate) was placed in each of 60×15 or 60×20 mm petri dishes without additional liquid or agar-supplemented media. Two hundred microliters of sterile water was placed in the middle of the filter paper. […]

SMILES: O=S(=O)([O-])[O-].[Cu+2] [CuSO4, copper sulfate]
- average copper-treated/control ratio (TE) [1]: 2.6
- Shoots/Regenerable callus, ratio (wheat callus cultures; 2 μM Cu at 1st Reg., 2 w.): 1.4
- Shoots/Regenerable callus, ratio (wheat callus cultures; 2 μM Cu at 2nd Reg. (MMS0C), 2 w.): 2
- 1 shoot/callus (wheat callus cultures; 2 μM Cu at 2nd Reg., 2 w.): 10.8
- Shoots/Regenerable callus, ratio (wheat callus cultures; 2 μM Cu at Delay/Sel., 2 w.): 1.6
- Shoots/Regenerable callus, ratio (wheat callus cultures; 2 μM Cu at all stages, 6 w.): 1.2
- Independent transgenic events/explants [2]: 33/108

Source: patent US20030154517A1, “Efficiency agrobacterium-mediated wheat transformation method” (priority 2001, published 2003)
